# Measurements from EP2698367A1, “Benzimidazoles for the treatment of cancer” (Max-Planck-Gesellschaft zur Förderung der Wissenschaften …, priority 2012, dated 2014).
# By UniProt entry, the sequences of proteins in these tests, tags left out. Where a name states a change or a piece, a line headed by the entry shows the natural chain unless it says otherwise.
# UniProt O43924: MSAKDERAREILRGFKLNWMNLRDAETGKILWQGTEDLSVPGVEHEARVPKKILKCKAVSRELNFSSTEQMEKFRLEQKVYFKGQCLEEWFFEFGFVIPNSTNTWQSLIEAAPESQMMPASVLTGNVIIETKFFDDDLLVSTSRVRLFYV
# Molecular target: PDEδ farnesyl pocket (Homo sapiens, UniProt O43924)
# Assay: Displacement titrations of labeled probe (fluorescence polarization) for the determination of KD values
# Format: binding
# From the text: The resulting solution was serially diluted, holding the concentrations of S54, PDEδ and DMSO constant. The sealed plates were shaken overnight at room temperature and centrifuged at the beginning of the next day. […] For the fitting of the data to a competition model the exact mathematical solution derived from the law of mass action was used as described by Roehrl et al.^3 Fraction bound data was fit using KD2 as the only fitting parameter and total ligand concentration as independent variable (OriginPro8.6, function codec from origin). [formula] • FSB: Fraction bound of fluorescent probe • KD1: Binding constant of fluorescent Probe determined from direct titration • KD2: Fitting parameter (Binding constant of unlabeld competitor) • LST: Total concentration of unlabeld small molecule competitor • RT: Total protein concentration
# For the fitting of data to a competition model with cooperative binding of two benzimidazole fragments the program Scientist 3.0 was used. An experimental system was defined as a series of partial equations including the equilibrium relationships between the various species. Anisotropy data was converted to fraction bound and fitting was carried out in anlogy to a previously described set of equilibrium relationships by Goody and coworkers.^4. KD1 = ([A][PDEDf])/([APDED]) [formula] […]
row,SMILES,Kd
1,"c1ccc(Cn2c(-c3ccc(OC[C@@H](C4CCNCC4)n4c(-c5ccccc5)nc5ccccc54)cc3)nc3ccccc32)cc1 [(R)-9, (R)-1-Benzyl-2-(4-(2-(2-phenyl-1H-benzo[d]imidazol-1-yl)-2-(piperidin-4-yl)ethoxy)phenyl)-1H-benzo[d]imidazole]",100 to 1000 nM
2,"c1ccc(Cn2c(-c3ccc(OC[C@H](C4CCNCC4)n4c(-c5ccccc5)nc5ccccc54)cc3)nc3ccccc32)cc1 [(S)-9, (S)-1-Benzyl-2-(4-(2-(2-phenyl-1H-benzo[d]imidazol-1-yl)-2-(piperidin-4-yl)ethoxy)phenyl)-1H-benzo[d]imidazole]",25 to 100 nM
